Assay results as given in patent US11957748B2, “Vaccine to pathogenic immune activation cells during infections” (priority 2019, dated 2024).

What was measured:
[1] = system: interferon-induced genes IFIT1, MX1 and OASL in CD4+ T cells; assay: Expression of ISGs in CD4+ T cells (qRT-PCR); assay type: cell-based, human; conditions: 10 ng/ml, 4 h
Protocol: FIG. 3. […] CD4^+ T cells were treated with IFNα2a or IFNλ1/2/3/4 (10 ng/ml). After 4 h of stimulation, qRT-PCR were used to examine the mRNA levels of the interferon-induced genes, IFIT1, MX1 and OASL and fold-changes was calculated by 2^−ΔΔCt method as compared with non-treated cell control and using endogenous S14 mRNA level for normalization.
HepG2 cells were seeded at a density of 2×10^5 cells per well in 12-well plates and incubated for 24 h. Then, fresh media was added with the indicated interferons. The cells were incubated for 4 h and then lysed, and RNA was purified using an extraction kit (Qiagen), according to the manufacturer's instructions. Synthesis of cDNA was performed using the PrimeScript RT Reagent kit (TAKARA). Quantitative PCR was carried out using the Power SYBR Green PCR Master Mix (Applied Biosystems) on a LightCycler 480 instrument (Roche). Each reaction was carried out in duplicate in a total volume of 100 μL. Primers were designed to be intron-spanning using Primer3 or Primer Express® v3.0 software (Applied Biosystems). […] For gene induction assays, fold change values were calculated using the AACt method. […]

CD4+ T cells [2] = assay: CD38 expression on CD3/CD28 stimulated CD4+ T cells; assay type: cell-based, human; conditions: anti-CD3/anti-CD28 stimulation, increasing dose of IFN
Protocol: FIG. 5. […] CD38 Median Fluorescence Intensity (MFI) was measured by flow cytometry in CD3^+ 7-AAD-CFSE^+ stimulated CD4^+ T cells at the end of the culture.
T cell activation: CD38 Median Fluorescence Intensity (MFI) of CD38 expression was measured by flow cytometry in CD3^+ 7-AAD-CFSE^+ stimulated CD4^+ T cells at the end of the culture.
CD4^+ T cell polyclonal stimulation: CFSE-stained CD4^+ T cells (5×10^4/well) were cultured in 96 round-bottomed microwells in the presence of ΔCD3-feeder (1×10^5/well) and plate-bound anti-CD3 Ab (2 μg/ml), soluble anti-CD28 mAb (2 μg/ml). CD4^+ T cell proliferation was evaluated with CFSE dilution assays as described above by flow cytometry. Cells were stimulated in presence of different amounts of recombinant cytokines.

CD4+ T cells [3] = assay: Allogeneic mixed lymphocyte reaction, CFSE dilution; assay type: cell-based, human; conditions: allogeneic poly I:C matured DC, 5 days, 10 ng/ml IFN
Protocol: FIG. 2. Anti-proliferative activity of type I and type III interferons against CD4^+ T cells. […] When indicated, anti-interferon type I receptor antibody was added. The percentage of CFSE dilution was evaluated by flow cytometry.
CFSE staining: CD4^+ T cells were stained with 1 μM CFSE (CellTrace cell proliferation kit; Molecular Probes/Invitrogen) in PBS for 8 min at 37° C. at a concentration of 1.107 cells/ml. The labeling reaction was stopped by washing twice the cell with RPMI-1640 culture medium containing 10% FBS. The cells were then re-suspended at the desired concentration and subsequently used for proliferation assays.
T cell proliferation: T cell proliferation was assessed with CFSE-dilution assays. For CFSE-dilution assay, at coculture completion, stimulated CFSE-labeled CD4^+ T cells were harvested, co-stained with anti-CD3 mAb and 7-AAD, and the percentage of proliferating cells (defined as CFSE low fraction) in gated CD3^+ 7-AAD^− cells was determined by flow cytometry.
Allogeneic mixed lymphocyte reaction: CFSE-stained CD4^+ T cells (5×10^4/well) were cultured in 96 round-bottomed microwells in the presence of allogeneic mature DC. […]
Briefly, CFSE labelled CD4^+ T cells were first stimulated with poly I:C matured allogeneic dendritic cells in presence of different dose of IFNs. At 5 days post activation, the CFSE fluorescence dilution was analyzed.

EMCV = assay: Antiviral assay: protection of HepG2 cells from EMCV-induced cytopathogenic effect (MTT); assay type: cell-based, EMCV (FA strain); conditions: 10 ng/ml IFN 24 h prior to EMCV challenge, MTT viability
Protocol: FIG. 1B. Antiviral activity of type I and type III interferons. Antiviral activity of type I and III IFNs against EMCV. IFNα2a or IFNλ1/2/3/4 (10 ng/ml) were added to HepG2 cells 24 h prior to challenge with EMCV. Forty-eight after infection with EMCV, cells were assayed for viability with a bioassay. A570 values were directly proportional to cell viability and therefore antiviral activity of the respective IFNs. IFN-α treatment without viral challenge was used as a baseline of the viability of the cells.
The virus used EMCV (FA strain) was grown on monolayers of Vero cells to complete cytopathic effect or until all cells were affected by the infection as determined by microscopy and prepared by two cycles of freezing and thawing, followed by centrifugation for 30 min at 5,000×g for removal of cellular debris.
Antiviral assays were done on HepG2 cells, which were seeded in DMEM supplemented with 10% FCS at a density of 1.5×10^4 in 96-well plates and left to settle. The cells were incubated with indicated doses of IFNs for 24 h before challenge with EMCV. […] The viability of the cells was analyzed by a bioassay based on the dehydrogenase system; this system in intact cells will convert the substrate, MTT, into formazan (blue), which in turn can be measured spectrophotometrically. […] Subsequently, the absorbance at 570 nm was determined employing the extraction buffer as the blank probe. […]

## IFN-α2a: type I interferon, recombinant cytokine used at 10 ng/ml
[1]
  expression of ISGs IFIT1, MX1 and OASL in CD4+ T cells: induced
CD4+ T cells [2]
  CD38 expression on stimulated CD4+ T cells: able to enhance the expression of CD38
CD4+ T cells [3]
  proliferation of allo-activated CD4+ T cells (CFSE dilution): inhibits the proliferation
EMCV
  protection of HepG2 cells challenged with EMCV (antiviral activity): able to fully protect HepG2 cells challenged with EMCV
